Laboratory results taken from article PMC11535040, “Requirement of Nek2a and cyclin A2 for Wapl-dependent removal of cohesin from prophase chromatin” (The EMBO Journal, 2024).

Columns and labels:
Assay in all cases: pull-down; Flag-Pds5b variants affinity-purified from Nek2a- and cyclin A2-free prometaphase cells, incubated on the beads with recombinant Nek2a and/or Cdk1/2-cyclin A2 and ATP, washed, then incubated with recombinant Wapl (2 µl) and sororin (0.3 µg) in 15 µl cleavage buffer without ATP, 20 min at 37 °C; immunoblotting
Conditions in all cases: both partners purified
[1] = biological target: T1, Flag-tagged Pds5b-Ser1177,1182,1209Ala (3A), untreated or exposed to Nek2a (human, UniProt Q9NTI5 1-1447, Ser1177,1182,1209Ala | Ser1177,1182,1209Ala | Ser1177,1182,1209Ala)
T1 construct: Pds5b, human; 3A is resistant to Nek2a; also called Pds5b-3A
T1 sequence (looked up): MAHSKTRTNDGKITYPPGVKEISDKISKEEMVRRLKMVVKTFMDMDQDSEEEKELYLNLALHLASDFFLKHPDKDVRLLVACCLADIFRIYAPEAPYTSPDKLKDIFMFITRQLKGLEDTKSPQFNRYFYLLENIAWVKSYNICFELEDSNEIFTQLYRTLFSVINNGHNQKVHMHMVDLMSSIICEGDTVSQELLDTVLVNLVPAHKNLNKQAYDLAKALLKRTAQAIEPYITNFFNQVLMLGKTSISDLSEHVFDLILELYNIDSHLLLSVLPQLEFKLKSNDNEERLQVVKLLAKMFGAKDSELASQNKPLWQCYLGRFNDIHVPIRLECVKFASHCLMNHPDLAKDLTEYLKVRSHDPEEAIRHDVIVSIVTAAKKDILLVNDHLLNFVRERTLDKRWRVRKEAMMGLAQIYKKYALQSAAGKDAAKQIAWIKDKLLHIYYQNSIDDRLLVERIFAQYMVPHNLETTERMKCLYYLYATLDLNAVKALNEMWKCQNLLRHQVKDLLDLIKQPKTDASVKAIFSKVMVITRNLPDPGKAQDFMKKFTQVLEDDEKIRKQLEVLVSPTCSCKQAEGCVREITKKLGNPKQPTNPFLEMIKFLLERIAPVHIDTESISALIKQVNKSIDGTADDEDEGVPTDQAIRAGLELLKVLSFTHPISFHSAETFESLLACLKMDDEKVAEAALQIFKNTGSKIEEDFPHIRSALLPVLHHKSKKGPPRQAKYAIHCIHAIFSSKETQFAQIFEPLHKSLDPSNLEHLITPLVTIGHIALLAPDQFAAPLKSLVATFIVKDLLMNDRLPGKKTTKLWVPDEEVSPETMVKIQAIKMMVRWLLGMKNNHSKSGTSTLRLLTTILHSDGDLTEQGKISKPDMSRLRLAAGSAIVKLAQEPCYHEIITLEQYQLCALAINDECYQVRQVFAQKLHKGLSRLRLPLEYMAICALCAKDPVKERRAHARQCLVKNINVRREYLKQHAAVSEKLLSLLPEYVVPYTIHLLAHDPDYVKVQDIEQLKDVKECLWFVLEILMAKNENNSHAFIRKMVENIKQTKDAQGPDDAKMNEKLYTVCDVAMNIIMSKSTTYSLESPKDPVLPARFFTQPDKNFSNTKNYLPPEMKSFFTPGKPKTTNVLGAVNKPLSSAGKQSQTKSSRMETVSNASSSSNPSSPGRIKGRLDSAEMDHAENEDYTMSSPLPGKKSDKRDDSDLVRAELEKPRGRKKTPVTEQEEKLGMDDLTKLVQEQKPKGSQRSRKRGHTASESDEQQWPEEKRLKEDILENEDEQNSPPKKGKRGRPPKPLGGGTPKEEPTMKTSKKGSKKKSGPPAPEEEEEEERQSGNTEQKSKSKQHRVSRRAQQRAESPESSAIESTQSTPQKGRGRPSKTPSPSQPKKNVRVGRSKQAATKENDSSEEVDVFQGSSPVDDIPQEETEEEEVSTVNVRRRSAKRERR

[2] = biological target: T2, Flag-tagged Pds5b-Ser1161,1166Ala (2A), untreated or exposed to Cdk1/2-cyclin A2 (human, UniProt Q9NTI5 1-1447, Ser1161,1166Ala | Ser1161,1166Ala)
T2 construct: Pds5b, human; 2A is resistant to Cdk1/2-cyclin A2; also called Pds5b-2A
T2 sequence (looked up): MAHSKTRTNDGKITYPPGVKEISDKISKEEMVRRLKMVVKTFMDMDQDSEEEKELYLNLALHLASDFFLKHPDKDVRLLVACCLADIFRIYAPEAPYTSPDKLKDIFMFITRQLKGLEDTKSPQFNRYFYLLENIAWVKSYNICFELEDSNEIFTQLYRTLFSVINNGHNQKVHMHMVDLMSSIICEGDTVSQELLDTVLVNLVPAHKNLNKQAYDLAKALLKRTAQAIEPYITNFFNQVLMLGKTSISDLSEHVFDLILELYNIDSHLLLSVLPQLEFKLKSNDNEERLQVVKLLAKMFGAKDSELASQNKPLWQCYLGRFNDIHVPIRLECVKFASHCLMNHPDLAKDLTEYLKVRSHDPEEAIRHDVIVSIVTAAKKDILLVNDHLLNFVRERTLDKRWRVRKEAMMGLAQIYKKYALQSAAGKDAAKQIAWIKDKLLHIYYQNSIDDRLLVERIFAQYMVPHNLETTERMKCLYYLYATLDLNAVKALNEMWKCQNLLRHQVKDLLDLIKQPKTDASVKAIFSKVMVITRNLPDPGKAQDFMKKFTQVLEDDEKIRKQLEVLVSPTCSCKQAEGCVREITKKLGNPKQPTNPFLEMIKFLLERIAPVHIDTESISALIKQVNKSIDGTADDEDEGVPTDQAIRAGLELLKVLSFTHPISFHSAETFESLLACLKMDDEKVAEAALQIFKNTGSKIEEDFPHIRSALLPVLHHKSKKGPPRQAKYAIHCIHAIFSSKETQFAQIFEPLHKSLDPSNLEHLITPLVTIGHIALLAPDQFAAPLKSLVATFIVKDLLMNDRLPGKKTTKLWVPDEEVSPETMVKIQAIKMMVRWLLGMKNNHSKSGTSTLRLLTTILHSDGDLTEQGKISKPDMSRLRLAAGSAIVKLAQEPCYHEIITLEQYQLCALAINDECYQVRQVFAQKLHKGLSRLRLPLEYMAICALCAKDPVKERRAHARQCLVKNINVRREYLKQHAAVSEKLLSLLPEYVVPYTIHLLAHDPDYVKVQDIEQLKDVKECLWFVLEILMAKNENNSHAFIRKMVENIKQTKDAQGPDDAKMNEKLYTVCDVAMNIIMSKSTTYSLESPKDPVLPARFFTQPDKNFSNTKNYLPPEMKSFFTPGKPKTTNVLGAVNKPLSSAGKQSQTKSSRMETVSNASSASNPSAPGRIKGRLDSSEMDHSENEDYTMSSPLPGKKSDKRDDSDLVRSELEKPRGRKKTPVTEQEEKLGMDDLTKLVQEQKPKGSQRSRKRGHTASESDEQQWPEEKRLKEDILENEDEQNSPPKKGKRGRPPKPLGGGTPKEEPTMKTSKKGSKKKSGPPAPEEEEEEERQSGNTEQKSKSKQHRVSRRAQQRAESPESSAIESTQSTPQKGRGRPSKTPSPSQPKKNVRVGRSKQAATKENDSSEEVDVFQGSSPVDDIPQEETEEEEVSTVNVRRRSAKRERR

[3] = biological target: T3, Flag-tagged Pds5b-Ser1161,1166,1177,1182,1209Ala (5A), untreated or exposed to Nek2a and Cdk1/2-cyclin A2 (human, UniProt Q9NTI5 1-1447, Ser1161,1166,1177,1182,1209Ala | Ser1161,1166,1177,1182,1209Ala | …)
T3 construct: Pds5b, human; 5A is resistant to both kinases; also called Pds5b-5A
T3 sequence (looked up): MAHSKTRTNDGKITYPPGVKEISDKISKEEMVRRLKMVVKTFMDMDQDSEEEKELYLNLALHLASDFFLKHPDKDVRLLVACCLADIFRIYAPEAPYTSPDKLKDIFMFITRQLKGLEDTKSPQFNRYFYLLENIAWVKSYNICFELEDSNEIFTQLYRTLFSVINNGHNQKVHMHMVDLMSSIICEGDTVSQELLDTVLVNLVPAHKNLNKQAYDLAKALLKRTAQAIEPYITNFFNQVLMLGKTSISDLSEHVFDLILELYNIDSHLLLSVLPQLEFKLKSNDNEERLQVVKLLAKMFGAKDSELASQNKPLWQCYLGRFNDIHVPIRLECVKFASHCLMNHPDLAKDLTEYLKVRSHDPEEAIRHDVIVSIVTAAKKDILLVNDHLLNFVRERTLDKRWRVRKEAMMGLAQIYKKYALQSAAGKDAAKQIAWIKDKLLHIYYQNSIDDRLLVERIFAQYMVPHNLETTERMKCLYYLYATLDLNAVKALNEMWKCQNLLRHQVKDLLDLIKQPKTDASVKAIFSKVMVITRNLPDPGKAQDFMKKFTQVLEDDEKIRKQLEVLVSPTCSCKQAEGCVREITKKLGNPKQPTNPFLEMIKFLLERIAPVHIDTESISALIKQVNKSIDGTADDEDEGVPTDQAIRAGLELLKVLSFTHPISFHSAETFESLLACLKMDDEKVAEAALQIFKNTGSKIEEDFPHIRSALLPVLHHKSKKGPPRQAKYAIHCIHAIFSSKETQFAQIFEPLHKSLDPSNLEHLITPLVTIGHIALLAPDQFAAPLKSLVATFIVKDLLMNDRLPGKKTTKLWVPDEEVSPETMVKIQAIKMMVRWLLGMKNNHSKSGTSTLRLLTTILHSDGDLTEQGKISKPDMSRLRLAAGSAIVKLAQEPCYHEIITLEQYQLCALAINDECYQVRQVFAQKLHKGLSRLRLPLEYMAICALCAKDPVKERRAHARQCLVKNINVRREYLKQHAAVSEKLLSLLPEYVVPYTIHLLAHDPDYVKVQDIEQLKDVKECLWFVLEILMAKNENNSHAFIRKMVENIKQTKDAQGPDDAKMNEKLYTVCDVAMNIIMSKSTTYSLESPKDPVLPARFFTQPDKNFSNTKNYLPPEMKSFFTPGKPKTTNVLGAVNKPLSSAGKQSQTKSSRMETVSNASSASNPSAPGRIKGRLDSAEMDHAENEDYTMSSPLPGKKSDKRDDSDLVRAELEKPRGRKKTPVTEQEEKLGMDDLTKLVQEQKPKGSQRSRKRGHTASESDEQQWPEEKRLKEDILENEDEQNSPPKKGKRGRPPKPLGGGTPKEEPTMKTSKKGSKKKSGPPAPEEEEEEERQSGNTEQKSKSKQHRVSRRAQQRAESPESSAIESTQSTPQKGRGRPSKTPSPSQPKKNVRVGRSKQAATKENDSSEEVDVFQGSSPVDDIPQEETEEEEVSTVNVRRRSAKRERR

binding result [1]: binds | binding result [2]: binds | binding result [3]: binds
B1: His6-SUMO3-sororin (natural protein, human, UniProt Q96FF9 1-252, looked up)
chain: MSGRRTRSGGAAQRSGPRAPSPTKPLRRSQRKSGSELPSILPEIWPKTPSAAAVRKPIVLKRIVAHAVEVPAVQSPRRSPRISFFLEKENEPPGRELTKEDLFKTHSVPATPTSTPVPNPEAESSSKEGELDARDLEMSKKVRRSYSRLETLGSASTSTPGRRSCFGFEGLLGAEDLSGVSPVVCSKLTEVPRVCAKPWAPDMTLPGISPPPEKQKRKKKKMPEILKTELDEWAAAMNAEFEAAEQFDLLVE
notes: sororin; Stored as His6-SUMO3-sororin; no cleavage of the tags is told; also called recombinant sororin; source: E. coli Rosetta 2 DE3 (pET28-derivative), purified over Ni-NTA agarose, dialysed; not shown: His6, N-terminal, kept; SUMO3, N-terminal, kept
